Measurements taken from ChEMBL document CHEMBL1149096 (J Med Chem, 2004).

Chains of the proteins cited; added tags and fusions are not shown.
UniProt P33535, whole entry: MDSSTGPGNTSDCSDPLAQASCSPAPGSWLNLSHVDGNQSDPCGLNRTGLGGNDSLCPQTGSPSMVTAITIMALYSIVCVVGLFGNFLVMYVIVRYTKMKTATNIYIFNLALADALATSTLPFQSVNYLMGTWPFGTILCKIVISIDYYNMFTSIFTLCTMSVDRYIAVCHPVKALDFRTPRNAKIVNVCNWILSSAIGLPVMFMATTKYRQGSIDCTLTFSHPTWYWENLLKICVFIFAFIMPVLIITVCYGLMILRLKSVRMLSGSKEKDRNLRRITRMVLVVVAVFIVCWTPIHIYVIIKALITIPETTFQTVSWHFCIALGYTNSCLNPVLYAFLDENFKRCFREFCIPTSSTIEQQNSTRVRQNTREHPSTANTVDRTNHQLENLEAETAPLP

Molecular target: Mu-type opioid receptor (Rattus norvegicus, UniProt P33535)
Assay: Binding affinity at Opioid receptor mu 1 by displacement of [3H]DAMGO in rat brain membrane
Assay type: cell membranes

`Oc1ccc2c3c1O[C@H]1c4[nH]c5ccccc5c4C[C@@]4(O)[C@@H](C2)N(CC2CC2)CC[C@]314` [NALTRINDOLE] gave a Ki of 151 nM.
